Measurements reported in patent US20040037843A1, “Inducing cellular immune responses to prostate cancer antigens using peptide and nucleic acid compositions” (priority 2003, published 2004).
pIC50: −log10 of the molar value. Where two headings read alike, the source gives them in different places.

Key:
HLA-A*0201 = HLA-A*0201 (Homo sapiens, UniProt P04439, D140Y/D185E/D98H/E176V/E277Q/G131W/G231S/I119V/I121R/I166T/I218V/L300P/L318F/N151K/N90K/P208A/P217A/Q86G/Q94H/R138H/R169H/T345S); experiment: HLA class I binding assay, purified HLA, inhibition of 125I-labelled probe peptide; conditions: Table XXII group headings ≦ 200 nM / > 200 nM, binding to HLA-A*0201
[1] = system: HLA-A2 supertype molecules (A*0201, A*0202, A*0203, A*0206, A*6802); experiment: A2-supertype cross-reactive binding (number of the five alleles bound); design: species or system human; conditions: for A2 Cross-Reactivity: number of the five A2-supertype alleles bound; for Cross-Reactivity (<200nM): number of the five A2 supertype alleles bound at <200nM

Row | Structure (SMILES) | pIC50 (HLA-A*0201; read-out: Binding affinity) | A2 Cross-Reactivity [1] | further results
1 | CC(C)C[C@H](NC(=O)[C@H](CO)NC(=O)[C@H](CCCNC(=N)N)NC(=O)[C@@H]1CCCN1C(=O)[C@H](CCCNC(=N)N)NC(=O)[C@H](CC(C)C)NC(=O)[C@@H](N)Cc1ccccc1)C(=O)N[C@@H](CCC(N)=O)C(=O)N[C@@H](CS)C(=O)N[C@H](C(=O)O)C(C)C [HuK2.165] | ≥ 6.70 |  | 
2 | CSCC[C@H](NC(=O)[C@H](CC(=O)O)NC(=O)[C@H](CC(N)=O)NC(=O)[C@H](CO)NC(=O)[C@H](CC(C)C)NC(=O)[C@H](CC(C)C)NC(=O)[C@H](Cc1c[nH]cn1)NC(=O)[C@H](CC(C)C)NC(=O)[C@@H](N)CO)C(=O)N[C@@H](CS)C(=O)N[C@@H](C)C(=O)O [HuK2.175] | ≥ 6.70 |  | 
3 | CC(C)C[C@H](NC(=O)[C@H](Cc1c[nH]c2ccccc12)NC(=O)[C@H](Cc1ccccc1)NC(=O)[C@H](Cc1ccccc1)NC(=O)[C@H](CC(C)C)NC(=O)[C@@H](N)CC(C)C)C(=O)N[C@@H](CC(=O)O)C(=O)N[C@@H](CCCNC(=N)N)C(=O)N[C@@H](CO)C(=O)N[C@H](C(=O)O)C(C)C [PAP.21] |  |  | pIC50 (HLA-A*0201; Binding affinity): ≥ 6.70
4 | CC(C)C[C@H](NC(=O)[C@H](CCC(=O)O)NC(=O)[C@H](CCCCN)NC(=O)[C@H](C)NC(=O)[C@H](CC(C)C)NC(=O)[C@@H](N)C(C)C)C(=O)N[C@@H](CCCCN)C(=O)N[C@@H](Cc1ccccc1)C(=O)N[C@H](C(=O)O)C(C)C [PAP.30] | ≥ 6.70 |  | 
5 | CC[C@H](C)[C@H](N)C(=O)N[C@@H](CC(C)C)C(=O)N[C@@H](CC(C)C)C(=O)N[C@@H](Cc1c[nH]c2ccccc12)C(=O)N[C@@H](CCC(N)=O)C(=O)N1CCC[C@H]1C(=O)N[C@H](C(=O)N1CCC[C@H]1C(=O)N[C@H](C(=O)O)C(C)C)[C@@H](C)CC [PAP.135] | ≥ 6.70 |  | 
6 | CC[C@H](C)[C@H](N)C(=O)N[C@@H](CCSC)C(=O)N[C@@H](Cc1ccc(O)cc1)C(=O)N[C@@H](CO)C(=O)N[C@@H](C)C(=O)N[C@@H](Cc1c[nH]cn1)C(=O)N[C@@H](CC(=O)O)C(=O)N[C@H](C(=O)N[C@H](C(=O)N[C@H](C(=O)O)C(C)C)[C@@H](C)O)[C@@H](C)O [PAP.284] | ≥ 6.70 |  | 
7 | CSCC[C@H](NC(=O)[C@@H](N)CC(C)C)C(=O)N[C@@H](CC(C)C)C(=O)N[C@@H](CC(C)C)C(=O)N[C@@H](CCCNC(=N)N)C(=O)N[C@@H](CC(C)C)C(=O)N[C@@H](CO)C(=O)N[C@@H](CCC(=O)O)C(=O)N1CCC[C@H]1C(=O)N[C@@H](C)C(=O)O [PSA.117] | ≥ 6.70 |  | 
8 | CC(C)C[C@H](NC(=O)[C@H](C)N)C(=O)NCC(=O)N[C@H](C(=O)N[C@H](C(=O)N[C@@H](CS)C(=O)N[C@@H](Cc1ccc(O)cc1)C(=O)N[C@@H](C)C(=O)O)[C@@H](C)O)[C@@H](C)O [PSA.143] | ≥ 6.70 |  | 
9 | CC(C)C[C@H](NC(=O)[C@H](CCCCN)NC(=O)[C@H](CCCCN)NC(=O)[C@@H]1CCCN1C(=O)[C@@H](NC(=O)[C@H](CC(C)C)NC(=O)[C@@H](N)Cc1ccccc1)[C@@H](C)O)C(=O)N[C@@H](CCC(N)=O)C(=O)N[C@@H](CS)C(=O)N[C@H](C(=O)O)C(C)C [PSA.161] | ≥ 6.70 |  | 
10 | CC(C)C[C@H](NC(=O)[C@H](CC(=O)O)NC(=O)[C@@H](NC(=O)[C@H](CS)NC(=O)[C@H](CCC(N)=O)NC(=O)[C@H](CC(C)C)NC(=O)[C@@H](N)CCCCN)C(C)C)C(=O)N[C@@H](Cc1c[nH]cn1)C(=O)N[C@H](C(=O)O)C(C)C [PSA.166] | ≥ 6.70 |  | 
11 | CC(C)C[C@H](NC(=O)[C@H](CC(C)C)NC(=O)[C@H](Cc1ccccc1)NC(=O)[C@H](Cc1ccccc1)NC(=O)CNC(=O)CNC(=O)[C@H](C)NC(=O)[C@H](CC(C)C)NC(=O)[C@@H](N)C(C)C)C(=O)O [PSM.27] | ≥ 6.70 |  | 
12 | CSCC[C@H](NC(=O)CN)C(=O)N1CCC[C@H]1C(=O)N[C@@H](CCC(=O)O)C(=O)NCC(=O)N[C@@H](CC(=O)O)C(=O)N[C@@H](CC(C)C)C(=O)N[C@H](C(=O)N[C@@H](Cc1ccc(O)cc1)C(=O)N[C@H](C(=O)O)C(C)C)C(C)C [PSM.168] | ≥ 6.70 |  | 
13 | CC(C)C[C@H](NC(=O)[C@H](CC(=O)O)NC(=O)[C@@H](NC(=O)[C@H](CS)NC(=O)[C@H](CCC(N)=O)NC(=O)[C@H](CC(C)C)NC(=O)[C@@H](N)CCCCN)C(C)C)C(=O)N[C@@H](Cc1c[nH]cn1)C(=O)N[C@H](C(=O)N[C@H](C(=O)O)C(C)C)C(C)C [Peptide 1419.24] |  |  | Cross-Reactivity (<200nM) [1]: 3
14 | CC[C@H](C)[C@H](NC(=O)[C@H](Cc1c[nH]c2ccccc12)NC(=O)[C@@H](NC(=O)[C@@H](NC(=O)[C@H](CO)NC(=O)[C@H](CC(C)C)NC(=O)[C@@H](NC(=O)[C@H](CC(C)C)NC(=O)[C@@H](N)Cc1ccccc1)[C@@H](C)O)C(C)C)[C@@H](C)O)C(=O)NCC(=O)N[C@H](C(=O)O)C(C)C [Peptide 1419.27] |  |  | Cross-Reactivity (<200nM) [1]: 5

Now from value to compound, other results behind:

Row | pIC50 (HLA-A*0201; read-out: Binding affinity) | A2 Cross-Reactivity [1] | Structure (SMILES) | further results
15 | ≥ 6.70 |  | CC[C@H](C)[C@H](NC(=O)[C@H](Cc1ccc(O)cc1)NC(=O)[C@H](C)NC(=O)[C@@H](NC(=O)CNC(=O)[C@H](CCCNC(=N)N)NC(=O)[C@H](CCC(=O)O)NC(=O)[C@H](CCC(N)=O)NC(=O)[C@H](CC(C)C)NC(=O)[C@@H](N)CC(C)C)C(C)C)C(=O)O [PSM.441] | 
16 |  | 4 | CSCC[C@H](NC(=O)[C@@H](N)Cc1ccccc1)C(=O)N[C@@H](CC(C)C)C(=O)N[C@@H](CS)C(=O)N[C@@H](C)C(=O)NCC(=O)N[C@@H](CC(C)C)C(=O)N[C@@H](Cc1c[nH]c2ccccc12)C(=O)N[C@H](C(=O)O)C(C)C [Peptide 1418.22] | 
17 |  | 4 | CC(C)C[C@H](NC(=O)[C@H](CC(=O)O)NC(=O)CNC(=O)[C@H](CCC(=O)O)NC(=O)[C@@H]1CCCN1C(=O)[C@@H](NC(=O)CN)[C@@H](C)O)C(=O)N[C@H](C(=O)N[C@@H](Cc1ccc(O)cc1)C(=O)N[C@H](C(=O)O)C(C)C)C(C)C [Peptide 1418.29] | 
18 |  | 5 | CC[C@H](C)[C@H](NC(=O)[C@H](CC(=O)O)NC(=O)[C@H](Cc1ccccc1)NC(=O)[C@@H](NC(=O)[C@H](C)N)[C@@H](C)O)C(=O)N[C@@H](CCC(=O)O)C(=O)N[C@@H](CO)C(=O)N[C@@H](CCCCN)C(=O)N[C@H](C(=O)O)C(C)C [Peptide 1418.30] | 
19 |  | 4 | CC(C)[C@H](NC(=O)[C@@H]1CCCN1C(=O)[C@@H](NC(=O)[C@H](C)NC(=O)CNC(=O)[C@@H](NC(=O)[C@H](CS)NC(=O)CNC(=O)[C@@H](NC(=O)[C@@H](N)CO)C(C)C)[C@@H](C)O)C(C)C)C(=O)O [Peptide 1418.35] | 
20 |  | 5 | CC(C)C[C@H](NC(=O)[C@H](CO)NC(=O)[C@@H](NC(=O)[C@H](CS)NC(=O)[C@H](CCC(N)=O)NC(=O)[C@H](CC(C)C)NC(=O)[C@@H](N)CO)C(C)C)C(=O)N[C@@H](Cc1c[nH]cn1)C(=O)N[C@@H](CC(C)C)C(=O)N[C@H](C(=O)O)C(C)C [Peptide 1418.52] | 
21 |  | 4 | CSCC[C@H](NC(=O)[C@H](CC(=O)O)NC(=O)[C@H](CC(N)=O)NC(=O)[C@H](CO)NC(=O)[C@H](CC(C)C)NC(=O)[C@@H](N)CC(C)C)C(=O)N[C@@H](CS)C(=O)N[C@@H](C)C(=O)N[C@@H](CCCNC(=N)N)C(=O)N[C@H](C(=O)O)C(C)C [Peptide 1418.53] | 
22 |  | 4 | CC[C@H](C)[C@H](N)C(=O)N[C@@H](CC(C)C)C(=O)N[C@@H](CC(C)C)C(=O)N[C@@H](CO)C(=O)N[C@H](C(=O)NCC(=O)N[C@@H](CS)C(=O)N[C@H](C(=O)NCC(=O)N[C@@H](C)C(=O)N[C@H](C(=O)O)C(C)C)[C@@H](C)O)C(C)C [Peptide 1418.57] | 
23 |  | 3 | CSCC[C@H](NC(=O)[C@H](CC(=O)O)NC(=O)[C@H](CC(N)=O)NC(=O)[C@H](CO)NC(=O)[C@H](CC(C)C)NC(=O)[C@H](CC(C)C)NC(=O)[C@H](Cc1c[nH]cn1)NC(=O)[C@H](CC(C)C)NC(=O)[C@@H](N)CO)C(=O)N[C@@H](CS)C(=O)N[C@H](C(=O)O)C(C)C [Peptide 1418.66] | 
24 |  | 4 | CSCC[C@H](NC(=O)[C@H](CC(=O)O)NC(=O)[C@H](CC(N)=O)NC(=O)[C@H](CO)NC(=O)[C@H](CC(C)C)NC(=O)[C@H](CC(C)C)NC(=O)[C@@H](N)Cc1c[nH]cn1)C(=O)N[C@@H](CS)C(=O)N[C@@H](C)C(=O)N[C@@H](CCCNC(=N)N)C(=O)N[C@H](C(=O)O)C(C)C [Peptide 1418.67] | 
25 |  | 3 | CC[C@H](C)[C@H](NC(=O)[C@H](CO)NC(=O)[C@@H](NC(=O)CNC(=O)[C@H](CCC(=O)O)NC(=O)[C@@H]1CCCN1C(=O)[C@@H]1CCCN1C(=O)[C@H](Cc1ccccc1)NC(=O)[C@H](CC(C)C)NC(=O)[C@H](C)N)C(C)C)C(=O)O [Peptide 1419.6] | 
26 |  | 4 | CSCC[C@H](NC(=O)[C@H](CC(=O)O)NC(=O)[C@H](CC(N)=O)NC(=O)[C@H](CO)NC(=O)[C@H](CC(C)C)NC(=O)[C@H](CC(C)C)NC(=O)[C@@H](N)Cc1c[nH]cn1)C(=O)N[C@@H](CS)C(=O)N[C@@H](C)C(=O)N[C@@H](CCCNC(=N)N)C(=O)N[C@@H](C)C(=O)O [Peptide 1419.15] | 
27 |  | 3 | CC[C@H](C)[C@H](NC(=O)[C@H](Cc1c[nH]c2ccccc12)NC(=O)[C@@H](NC(=O)[C@@H](NC(=O)[C@H](CO)NC(=O)[C@H](CC(C)C)NC(=O)[C@@H](NC(=O)[C@H](CC(C)C)NC(=O)[C@H](Cc1ccccc1)NC(=O)[C@@H](NC(=O)[C@@H](N)C(C)C)C(C)C)[C@@H](C)O)C(C)C)[C@@H](C)O)C(=O)O [Peptide 1419.25] | 
28 |  | 4 | CC(C)C[C@H](NC(=O)[C@@H](N)Cc1ccccc1)C(=O)N[C@@H](CC(N)=O)C(=O)N[C@@H](CCC(=O)O)C(=O)N[C@@H](CO)C(=O)N[C@@H](Cc1ccc(O)cc1)C(=O)N[C@@H](CCCCN)C(=O)N[C@@H](Cc1c[nH]cn1)C(=O)N[C@@H](CCC(=O)O)C(=O)N[C@@H](CCC(N)=O)C(=O)N[C@H](C(=O)O)C(C)C [Peptide 1419.55] | 
29 |  | 4 | CC(C)C[C@H](NC(=O)[C@H](CC(C)C)NC(=O)[C@H](Cc1c[nH]cn1)NC(=O)[C@H](CC(C)C)NC(=O)[C@H](CO)NC(=O)[C@@H](NC(=O)[C@H](CS)NC(=O)[C@H](CCC(N)=O)NC(=O)[C@H](CC(C)C)NC(=O)[C@@H](N)CO)C(C)C)C(=O)O [Peptide 1419.66] | 
